CycPeptMPDB entries from one study

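Conditions beyond the assay type are not listed; see the original paper. Other peptides of the study may be missing here. Peptides that the database sets to -10, its floor, are left out.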

PAMPA measures passive passage through an artificial lipid membrane.
P is given in units of 10^-6 cm/s (from log10 values with two decimals); larger means faster passage.

structure (SMILES)	PAMPA (10^-6 cm/s)
CC(C)C[C@H]1NC(=O)C[C@H](Cc2ccccc2)NC(=O)[C@H](Cc2ccccc2)NC(=O)CN(Cc2ccccc2)C(=O)[C@H]2CCCN2C(=O)CN(Cc2ccccc2)C1=O	1.6
CCCN1CC(=O)N(C)[C@@H](CC(C)C)C(=O)N(Cc2ccccc2)CC(=O)N2CCC[C@@H]2C(=O)N[C@H](CC(C)C)C(=O)N[C@@H](Cc2ccccc2)C1=O	7.4
CCCN1CC(=O)N(Cc2ccccc2)CC(=O)N[C@@H](Cc2ccccc2)CC(=O)N2CCC[C@H]2C(=O)N(C)[C@@H](CC(C)C)C(=O)N[C@@H](Cc2ccccc2)C(=O)N2CCC[C@H]2C1=O	2.3
C[C@@H]1C(=O)N(Cc2ccccc2)CC(=O)N[C@@H](Cc2ccccc2)CC(=O)N2CCC[C@H]2C(=O)N(Cc2ccccc2)CC(=O)N[C@@H](Cc2ccccc2)C(=O)N2CCC[C@H]2C(=O)N1C	0.38
CC(C)C[C@@H]1C(=O)N2CCC[C@@H]2C(=O)N(Cc2ccccc2)CC(=O)N[C@@H](Cc2ccccc2)C(=O)N2CCC[C@@H]2C(=O)N[C@H](C)C(=O)N(Cc2ccccc2)CC(=O)N1C	0.89
CC(C)C[C@H]1C(=O)N[C@@H](Cc2ccccc2)CC(=O)N2CCC[C@H]2C(=O)N(Cc2ccccc2)CC(=O)N[C@@H](Cc2ccccc2)C(=O)N(C)[C@@H](C)C(=O)N1C	13
CCCN1CC(=O)N[C@H](CC(C)C)C(=O)N[C@@H](Cc2ccccc2)CC(=O)N2CCC[C@@H]2C(=O)N[C@@H](CC(C)C)C(=O)N[C@@H](Cc2ccccc2)C1=O	0.78
CC(C)C[C@H]1C(=O)N[C@@H](Cc2ccccc2)CC(=O)N2CCC[C@H]2C(=O)N(Cc2ccccc2)CC(=O)N[C@@H](Cc2ccccc2)C(=O)N2CCC[C@@H]2C(=O)N[C@@H](Cc2ccccc2)CC(=O)N1C	1.7
CC(C)C[C@H]1NC(=O)[C@H]2CCCN2C(=O)C[C@H](Cc2ccccc2)NC(=O)CN(Cc2ccccc2)C(=O)[C@H](C)NC(=O)[C@H](Cc2ccccc2)NC1=O	0.46
CCCN1CC(=O)N(C)[C@H](CC(C)C)C(=O)N(Cc2ccccc2)CC(=O)N2CCC[C@H]2C(=O)N[C@H](CC(C)C)C(=O)N[C@@H](Cc2ccccc2)C1=O	0.59
CC(C)C[C@@H]1NC(=O)[C@@H](CC(C)C)N(C)C(=O)C[C@H](Cc2ccccc2)NC(=O)[C@H]2CCCN2C(=O)[C@H](Cc2ccccc2)NC(=O)CN(Cc2ccccc2)C(=O)[C@@H]2CCCN2C1=O	5.6
CC(C)C[C@H]1C(=O)N2CCC[C@H]2C(=O)N(Cc2ccccc2)CC(=O)N[C@@H](Cc2ccccc2)C(=O)N2CCC[C@@H]2C(=O)N[C@@H](C)C(=O)N(Cc2ccccc2)CC(=O)N1C	1.3
CCCN1CC(=O)N(Cc2ccccc2)CC(=O)N[C@@H](Cc2ccccc2)CC(=O)N2CCC[C@H]2C(=O)N(Cc2ccccc2)CC(=O)N[C@@H](Cc2ccccc2)C(=O)N2CCC[C@H]2C1=O	1.9
CCCN1CC(=O)N(Cc2ccccc2)CC(=O)N(Cc2ccccc2)CC(=O)N2CCC[C@@H]2C(=O)N(C)[C@H](CC(C)C)C(=O)N[C@@H](Cc2ccccc2)C(=O)N2CCC[C@@H]2C1=O	1.3
CC(C)C[C@@H]1NC(=O)[C@H]2CCCN2C(=O)[C@H](CC(C)C)NC(=O)CN(Cc2ccccc2)C(=O)C[C@H](Cc2ccccc2)NC(=O)[C@H](Cc2ccccc2)NC1=O	3.1
CC(C)C[C@H]1NC(=O)[C@H]2CCCN2C(=O)C[C@H](Cc2ccccc2)NC(=O)CN(Cc2ccccc2)C(=O)[C@H](C)N(C)C(=O)[C@H](Cc2ccccc2)NC1=O	1.3
CC(C)C[C@H]1C(=O)N(Cc2ccccc2)CC(=O)N2CCC[C@@H]2C(=O)N(Cc2ccccc2)CC(=O)N[C@@H](Cc2ccccc2)C(=O)N[C@H](C)C(=O)N1C	2.7
CCCN1CC(=O)N(Cc2ccccc2)CC(=O)N(Cc2ccccc2)CC(=O)N2CCC[C@H]2C(=O)N(C)[C@H](CC(C)C)C(=O)N[C@@H](Cc2ccccc2)C(=O)N2CCC[C@H]2C1=O	0.69
CC(C)C[C@@H]1NC(=O)C[C@H](Cc2ccccc2)NC(=O)[C@H](Cc2ccccc2)NC(=O)[C@H](CC(C)C)N(C)C(=O)[C@@H]2CCCN2C(=O)CN(Cc2ccccc2)C1=O	4.3

Data: CycPeptMPDB; original report Townsend et al. 2020, doi:10.26434/chemrxiv.13335941.v1.